Where only a bound is given, the exact number is not on record here.

Amino acid sequences for entries named in this document (tags omitted). Residues count along the entry.
UniProt P05067, 672-713 limits assumed: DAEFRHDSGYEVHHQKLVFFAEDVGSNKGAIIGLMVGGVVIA
UniProt P05067, 672-711 limits assumed: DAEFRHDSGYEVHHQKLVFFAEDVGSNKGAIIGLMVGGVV

Assay [1] deals with T1, amyloid (aggregated Aβ1-42) (Homo sapiens, UniProt P05067).
T1 construct: Aβ1-42 (Wako) was dissolved in phosphate buffer (pH 7.4); purchased Wako
Kind of assay: Measurement of affinity with amyloid (inhibition of [125I]3′-I-BTA-0 binding), Example II-7. As to conditions: [125I]3′-I-BTA-0 400 pmol/L, amyloid 1 μmol/L, 1% bovine serum albumin-containing phosphate buffer (pH 7.4). The source says:
Then, each sample solution was filtered through a glass fiber filter (trade name: Mulutiscreen™-FC, manufactured by Millipore), to separate the [^125I]3′-I-BTA-0 attached to amyloid from the free [^125I]3′-I-BTA-0.
(§1) The measured radioactivity level was defined as the background radioactivity level, and used in the calculation of the inhibition ratio (hereinafter referred to as BG).
A graph in which values converted by probit transformation from the obtained inhibition ratios were plotted relative to logarithms of concentrations of compounds for evaluation was prepared to obtain an approximate straight line by the least square method.

Assay [2] deals with T2, amyloid (aggregated Aβ1-40) (Homo sapiens, UniProt P05067).
T2 construct: Aβ1-40 (Peptide Institute, INC.) was dissolved in phosphate buffer (pH 7.4); purchased Peptide Institute, INC
As to the kind of experiment: Measurement of affinity with amyloid (inhibition of [125I]3′-I-BTA-0 binding), Examples I-8 to I-12. Particulars: [125I]3′-I-BTA-0 400 pmol/L, amyloid 1 μmol/L, 0.1% bovine serum albumin-containing phosphate buffer (pH 7.4). The method, then:
(1) Aβ1-40 (Peptide Institute, INC.) was dissolved in phosphate buffer (pH 7.4) and shaken at 37° C. for 62-72 hours, to obtain a 1 mg/mL suspension of aggregated Aβ (hereinafter referred to as amyloid suspension in this Example).
(5) Samples in which [^125I]3′-I-BTA-0, each compound for evaluation and amyloid were dissolved in a 0.1% bovine serum albumin-containing phosphate buffer (pH 7.4) at final concentrations shown in Table 1-2 were prepared. The resulting samples were filled in each well (about 0.3 mL in volume) of a 96-well microplate.
(6) The microplate filled with the sample solutions was shaken at a given rate (400 rpm) at 22° C. for 3 hours. […]
(7) The glass fiber filter used for the filtration of each sample solution was washed with a 0.1% bovine serum albumin-containing phosphate buffer (pH 7.4) (0.5 mL×5), and radioactivity of the glass fiber filter was measured with an autowell gamma system (manufactured by Aloka, Type: ARC-301B).
as §1
(9) Using the radioactivity levels measured above in (7) and (8), the inhibition ratio was determined by the following formula (1-1). […]

As a reminder, the IC50 is the concentration that gives 50% inhibition. A higher IC50 goes with weaker potency. Turning to `Cc1ccc2c(c1)sc(-c1ccc(N(C)C)cc1)[n+]2C` [Thioflavin T], the IC50 in assay [1] and in assay [2] was over 1000 nM in each case.

(Values after US8506930B2, “Compounds having affinity for amyloid” (Nihon Medi-Physics Co., Ltd., priority 2006, dated 2013).)
